Laboratory results reported in US20240002445A1, “TYROSYL-LOCK PEPTIDES” (The United States of America,as represented by the …, priority 2020, published 2024).

Sequences of proteins named here, by UniProt entry; tags and fusion partners are left off.
UniProt Q9NUW8, whole entry: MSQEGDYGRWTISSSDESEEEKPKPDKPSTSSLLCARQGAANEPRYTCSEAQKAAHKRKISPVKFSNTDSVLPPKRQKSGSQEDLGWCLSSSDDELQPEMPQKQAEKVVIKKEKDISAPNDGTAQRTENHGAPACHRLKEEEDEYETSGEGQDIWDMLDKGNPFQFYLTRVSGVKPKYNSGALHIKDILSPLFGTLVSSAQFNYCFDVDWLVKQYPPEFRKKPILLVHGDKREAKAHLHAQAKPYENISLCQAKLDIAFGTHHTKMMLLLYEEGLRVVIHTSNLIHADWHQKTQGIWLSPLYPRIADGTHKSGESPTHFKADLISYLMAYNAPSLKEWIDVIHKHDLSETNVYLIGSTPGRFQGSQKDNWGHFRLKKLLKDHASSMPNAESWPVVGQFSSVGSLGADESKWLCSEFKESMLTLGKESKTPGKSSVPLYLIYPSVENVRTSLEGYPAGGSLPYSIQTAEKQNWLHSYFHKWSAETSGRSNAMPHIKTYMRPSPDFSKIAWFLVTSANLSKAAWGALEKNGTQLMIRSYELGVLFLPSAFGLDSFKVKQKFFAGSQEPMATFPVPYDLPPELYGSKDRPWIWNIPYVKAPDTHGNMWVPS

Biological target: T1, FL-TDP1 (Homo sapiens, UniProt Q9NUW8)
T1 construct: either full-length TDP1 or Δ1-147TDP1 was diluted to 1×
Assay: FL-TDP1 FRET assay without TCEP (recifin A and analogues)
Type: biochemical
Settings: IC50 μM (FL-TDP1 inhibitory activity), 1 nM FL-TDP1, 0.25 μM substrate, T=15 min, 1XPBS pH 7.4, 80 mM KCl, high-test concentration 20 μM
Method: For these FRET assays, TCEP was omitted from the reaction buffer. Peptides were evaluated for FL-TDP1 inhibitory activity using an 8-pt, 10^0.5 dilution series at a high-test concentration of 20 μM. RXN conditions: 1 nM FL-TDP1, 0.25 μM substrate, T=15 min.; rxn buffer (1XPBS pH 7.4, 80 mM KCl) (-TCEP). See FIGS. 21A and 21B and FIG. 22.

SMILES: CC[C@H](C)[C@@H]1NC(=O)[C@H](Cc2ccc(O)cc2)NC(=O)[C@H](CC(N)=O)NC(=O)[C@H](CCC(N)=O)NC(=O)[C@@H]2CSSC[C@@H]3NC(=O)[C@H](CCC(=O)O)NC(=O)[C@H](Cc4c[nH]c5ccccc45)NC(=O)[C@@H]4CCCN4C(=O)[C@@H]4CCCN4C(=O)[C@@H]4CCCN4C(=O)[C@H](CCC(N)=O)NC(=O)[C@H](CC(C)C)NC(=O)[C@H](CCC(=O)O)NC(=O)[C@H](Cc4ccccc4)NC(=O)[C@H](CO)NC(=O)[C@H](Cc4ccc(O)cc4)NC(=O)[C@H](CO)NC(=O)CNC(=O)[C@H](CCCNC(=N)N)NC(=O)CNC(=O)[C@H](Cc4ccccc4)NC(=O)[C@H](CSSC[C@@H](C(=O)O)NC(=O)[C@H](CCC(N)=O)NC(=O)[C@H](Cc4ccc(O)cc4)NC3=O)NC(=O)[C@H](CSSC[C@H](NC(=O)[C@H](Cc3ccccc3)NC(=O)[C@H](C)NC(=O)[C@H](CCC(=O)O)NC(=O)[C@@H]3CCC(=O)N3)C(=O)N[C@@H](Cc3ccc(O)cc3)C(=O)N[C@@H](CO)C(=O)N[C@@H](CC(=O)O)C(=O)N[C@@H](CCCNC(=N)N)C(=O)N[C@@H](C)C(=O)N2)NC(=O)[C@H](CC(=O)O)NC(=O)[C@@H]2CCCN2C(=O)[C@H]([C@@H](C)CC)NC(=O)[C@H](CO)NC(=O)CNC1=O [Ala10, [Ala10]recifin]
- IC50: > 10 µM
